Amino acid sequences for entries named in this document (tags omitted).
UniProt P28647, whole entry: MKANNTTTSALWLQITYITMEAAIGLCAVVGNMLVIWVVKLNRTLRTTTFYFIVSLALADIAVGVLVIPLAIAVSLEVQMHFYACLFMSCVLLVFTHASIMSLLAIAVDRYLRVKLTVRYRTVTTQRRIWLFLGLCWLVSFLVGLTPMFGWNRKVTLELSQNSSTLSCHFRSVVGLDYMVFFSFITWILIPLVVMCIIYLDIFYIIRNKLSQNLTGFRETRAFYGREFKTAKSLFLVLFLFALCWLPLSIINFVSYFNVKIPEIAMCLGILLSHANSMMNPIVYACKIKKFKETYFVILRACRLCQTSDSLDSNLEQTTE
UniProt P30543, whole entry: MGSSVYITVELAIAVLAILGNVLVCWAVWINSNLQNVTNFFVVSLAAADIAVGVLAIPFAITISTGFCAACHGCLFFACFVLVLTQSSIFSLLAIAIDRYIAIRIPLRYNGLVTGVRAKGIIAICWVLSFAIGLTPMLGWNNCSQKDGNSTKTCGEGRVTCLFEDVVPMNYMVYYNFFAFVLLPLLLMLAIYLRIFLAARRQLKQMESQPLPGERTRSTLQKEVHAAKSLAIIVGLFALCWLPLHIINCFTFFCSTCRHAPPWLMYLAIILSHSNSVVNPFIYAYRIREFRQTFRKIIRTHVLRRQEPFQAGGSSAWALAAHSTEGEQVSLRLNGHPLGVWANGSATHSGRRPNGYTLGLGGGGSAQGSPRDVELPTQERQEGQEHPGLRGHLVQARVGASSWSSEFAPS
UniProt P25099, whole entry: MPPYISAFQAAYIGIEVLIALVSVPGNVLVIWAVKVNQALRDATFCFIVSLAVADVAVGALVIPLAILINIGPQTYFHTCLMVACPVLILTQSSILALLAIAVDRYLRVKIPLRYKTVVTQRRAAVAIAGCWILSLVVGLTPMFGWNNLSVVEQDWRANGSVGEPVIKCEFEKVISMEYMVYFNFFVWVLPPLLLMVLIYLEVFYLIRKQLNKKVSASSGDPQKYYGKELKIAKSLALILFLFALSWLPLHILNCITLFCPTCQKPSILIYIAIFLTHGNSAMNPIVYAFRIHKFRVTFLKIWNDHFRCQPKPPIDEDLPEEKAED

According to patent US5773423A (priority 1994, dated 1998):

How the values were obtained:
[1] = molecular target: T1, rat A3 receptors (Rattus norvegicus, UniProt P28647); test: Irreversible inhibition of radioligand binding at rat A3 receptors after preincubation; conditions: CHO cells or RBL-2H3 mast cells
T1 construct: expressed in transfected cells; host or cells: CHO cells, transfected (the IC50); RBL-2H3 rat mast cells (endogenous) also named

[2] = molecular target: A2 receptors from rat striatal membranes (Rattus norvegicus, UniProt P30543)
[3] = molecular target: T2, A1 receptors from rat brain membranes (Rattus norvegicus, UniProt P25099); type: binding; conditions: Table 2, [3H]PIA
T2 construct: Rat cerebral cortical and striatal membranes were prepared; from tissue; host or cells: rat brain (cerebral cortical) membranes

Row | Ki [2] | Ki [3] | SMILES | irreversible inhibition of A3 binding (in words) [1]
1 | – | – | Cn1c(=O)c2[nH]cnc2n(C)c1=O [Compound 103, 1,3-dimethylxanthine, reference compound] | insensitive to theophylline (1 mM)
2 | 470 ± 365 nM | 820 ± 570 nM | CNC(=O)[C@H]1O[C@@H](n2cnc3c(NCc4cccc(I)c4)nc(Cl)nc32)[C@H](O)[C@@H]1O [Example 44, 2-chloro-N^6-(3-iodobenzyl)-9-[5-(methylamido)-β-D-ribofuranosyl]-adenine] | –
